Source: article PMC5341816

Molecular target: epidermal growth factor receptor (EGFR) (human (endogenous in SW1990)) (UniProt P00533)
Assay: FRAP (fluorescence recovery after photobleaching) on live cells; SW1990 cells, treated or not with 1,3,4-O-Bu3ManNAc for 48 h (serum starved for the last 24 h); 2.0 ug/mL Alexa Fluor 488-conjugated EGF kept unbound in the bath; 37 C; Live Cell Imaging Solution with 1.0% BSA and 20 mM glucose; 3.0 by 1.0 um membrane region bleached; one phase exponential association fit gives t0.5

t0.5 of fluorescence recovery, EGF in the bath (1,3,4-O-Bu3ManNAc-treated cells): 7.5 s
t0.5 of fluorescence recovery, EGF in the bath (control cells): 8.37 s
Substance: Alexa Fluor 488-conjugated EGF (ligand)
